The test system of the series is opioid related adverse events. The settings on record: morphine equivalent 12 mg, q6h 48 hr.

These results are taken from US20110046173A1 (priority 2009, published 2011).

Regarding `CN1CC[C@]23c4c5ccc(O)c4O[C@H]2[C@@H](O)C=C[C@H]3[C@H]1C5` [Morphine, morphine], the “Constipation - moderate/severe, Adverse Events (%)” value came to 0%; the “Constipation mild/mod/severe, Adverse Events (%)” value amounted to 10%; the “Dizziness - moderate/severe, Adverse Events (%)” value stood at 7%; the “Dropouts (%)” value is reported as 7%.

For `COc1ccc2c3c1O[C@H]1C(=O)CC[C@@]4(O)[C@@H](C2)N(C)CC[C@]314` [Oxycodone, oxycodone], the “Constipation - moderate/severe, Adverse Events (%)” value came to 0% and the “Constipation mild/mod/severe, Adverse Events (%)” value was found to be 6%.
